Measured values reported in patent US12104201B2, “Engineered gyri-like mutein aptamers, and related methods” (CROSSLIFE TECHNOLOGIES INC., priority 2019, dated 2024).

Tested on: C. tepidium CTR107 variants, FAM-binding aptamers from phage display library (7 unique)
Test: Fluorescence-binding assay, Kd by nonlinear regression fit to the Hill equation

Substance: 5(6)-Carboxyfluorescein [FAM]
- increase in affinity compared to wildtype CTR107: 50-700 fold
